In patent US7947280B2 (priority 2003, dated 2011):

System: C57/B1/6 mice
Conditions: two weeks of apelin infusion compared to saline
Description: A short anesthetic (isoflurane 1% in oxygen 11/min) facilitated implantation of a 2 ml osmotic minipump under the scruff with staple closure (Alzet Osmotic pumps, Cupertino, Calif., model 1002). […] Cardiovascular parameters were recorded at 7 days and 14 days by tail cuff sphygmomanomtery (Visitech Systems, Apex, N.C.) and echocardiography (probe frequency 15 MHz, Acuson Sequoia, Siemens, Malvern, Pa.). For echocardiography, mice were anesthetized using isoflurane (0.75-1.25% in oxygen 11/min) then placed supine and warmed using a heat lamp. Using a gel buffer, parastemal long and short axis views were recorded in each animal to allow estimation of indices of contractility such as fractional shortening (LVEDD-LVESD/LVEDD), cardiac output ([Pi*(Aod)^2*VTI*HR]/4), velocity of circumferential shortening ([LVEDD−LVESD]/[ET×LVEDD]), and LV mass (1.05*[(IVSD+LVEDD+PWTD).su-p.3-LVEDD^3) where LVEDD is left ventricular end diastolic diameter, LVESD is left ventricular end systolic diameter, IVSD is inter ventricular septum in diastole, PWTD is posterior wall thickness in diastole, Aod is aortic diameter, VTI is the velocity time integral, ET is ejection time. […]
Data Analysis. Data were analyzed using Student's t statistic (paired) or the repeated measures analysis of variance using the post hoc comparison of Fisher (NCSS 2002). […]

With apelin as the substance, how does the “post mortem organ weights (heart or ventricular weight)” value read?
Its value is “no increase”.
